Consider one compound from ChEMBL document CHEMBL1148279, “Effects of bisphosphonates on the growth of Entamoeba histolytica and Plasmodium species in vitro and in vivo” (J Med Chem, 2004).

The series can be described thus: Therapeutic index was expressed as ratio of LD50 for KB cell line to IC50 against Plasmodium falciparum. Format: cell-based. The settings on record: human, KB cells; read-out: TI.

Each structure is given as a SMILES string.

Consider `CCn1c2ccccc2c2ccc(NC(P(=O)(O)O)P(=O)(O)O)cc21`, for which the selectivity ratio stood at 6.83.
